From patent US20220267447A1

The chains behind the UniProt entries cited, without tags or fusion partners. Residues count along the entry.
UniProt P23458, 854-1154 limits assumed: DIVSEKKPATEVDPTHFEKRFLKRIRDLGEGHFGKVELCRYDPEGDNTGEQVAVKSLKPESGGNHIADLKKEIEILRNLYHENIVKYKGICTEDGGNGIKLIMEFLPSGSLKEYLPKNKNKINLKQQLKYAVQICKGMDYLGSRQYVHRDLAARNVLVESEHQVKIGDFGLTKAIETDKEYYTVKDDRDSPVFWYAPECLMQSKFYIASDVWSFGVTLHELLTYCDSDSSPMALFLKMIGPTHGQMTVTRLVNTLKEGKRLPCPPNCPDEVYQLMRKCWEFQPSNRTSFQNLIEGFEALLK

Tests used:
IL-2Rβ (pY338) = assay: ITC
IL-2Rβ (pY358) = assay: ITC
IL-2Rβ (pY510) = assay: ITC
IL-2Rγ (pY303) = assay: ITC
IL-2Rγ (pY325) = assay: ITC
IL-2Rγ (pY357) = assay: ITC
IL-2Rγ (pY363) = assay: ITC
JAK1 (Y1034) = assay: ITC
JAK3 (pY980) = assay: ITC
mIL-2Rβ (pY392) = assay: ITC
[1] = target: JAK1 kinase domain (JH1) (Homo sapiens (Human)) (UniProt P23458); assay: cell-based or functional assay

| Substance | pIC50 (TYK2 kinase domain (JH1)) | pIC50 (JAK2 kinase domain (JH1)) | pIC50 (JAK3) | pKd (IL-2Rβ (pY338)) | pKd (IL-2Rβ (pY358)) | pKd (IL-2Rβ (pY510)) | pKd (IL-2Rγ (pY303)) | pKd (IL-2Rγ (pY325)) | pKd (IL-2Rγ (pY357)) | pKd (IL-2Rγ (pY363)) | pKd (JAK1 (Y1034)) | pKd (JAK3 (pY980)) | pKd (mIL-2Rβ (pY392)) | IC50, inhibition of the JAK1 kinase domain (JH1) in an in vitro kinase reaction [1] |
| --- | --- | --- | --- | --- | --- | --- | --- | --- | --- | --- | --- | --- | --- | --- |
| hCIS-SH2-BC: recombinant trimeric complex of a human GST-CIS construct (hCIS-SH2) with Elongins B and C (from UniProt Q9NSE2 66-258; Q15370 1-118; Q15369 17-112) | < 4.70 | 5.62 | 5.17 | 5.15 | < 5.00 | < 5.00 | < 5.00 | < 5.00 | < 5.00 | < 5.00 | < 5.00 | 6.10 | 5.82 |  |
| human CIS lacking the PEST motif (residues 173-202; APEST), trimeric complex with elongin B and elongin C (from UniProt Q9NSE2 1-258; Q15370 1-118; Q15369 17-112) |  |  |  |  |  |  |  |  |  |  |  |  |  | 3320 µM |

pIC50, pKd: −log10 of the molar value.
